Literature values in publication PMC12621185, “Design, Syntheses, and Pharmacological Evaluations of Core Ring Expanded Fentanyl Analogues as Potential Counteracting Agents Against Fentanyl Induced Respiratory Depression” (2025).

Experiments:
Swiss Webster mice [1] = conditions: warm-water tail immersion, previously reported data, ref number not printed (Table 1 footnote a)
Swiss Webster mice [2] = conditions: warm-water tail immersion, previously reported data, ref number not printed (Table 1 footnote a); remark: listed apart in the source

C=CCN1CC[C@]23c4c5ccc(O)c4O[C@H]2C(=O)CC[C@@]3(O)[C@H]1C5
AD50 (95% CL) against 10 mg/kg morphine (Swiss Webster mice [1]): 0.05 (0.03–0.09) mg/kg | AD50 (95% CL) against 0.1 mg/kg fentanyl (Swiss Webster mice [2]): 0.005 (0.002–0.009) mg/kg
